Results from PMC12481580 (Journal of Medicinal Chemistry, 2025).

Protein sequences, listed by entry. Tags and fused reporters are not part of them.
UniProt P30989, whole entry: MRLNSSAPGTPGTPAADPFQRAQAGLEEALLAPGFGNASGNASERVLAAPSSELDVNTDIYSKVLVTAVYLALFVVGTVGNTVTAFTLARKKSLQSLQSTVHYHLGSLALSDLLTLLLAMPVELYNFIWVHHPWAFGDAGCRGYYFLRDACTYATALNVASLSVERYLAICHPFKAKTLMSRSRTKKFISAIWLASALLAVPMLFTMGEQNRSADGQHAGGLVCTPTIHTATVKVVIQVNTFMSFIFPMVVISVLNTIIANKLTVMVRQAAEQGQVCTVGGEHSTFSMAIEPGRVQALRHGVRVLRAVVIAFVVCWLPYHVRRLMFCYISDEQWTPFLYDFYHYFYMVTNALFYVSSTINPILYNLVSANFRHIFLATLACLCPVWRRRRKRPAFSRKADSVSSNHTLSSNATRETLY

What was measured:
[1] = biological target: T1, NTS1R (Homo sapiens, UniProt P30989); assay: radioligand competition binding with [3H]UR-MK300 at intact HT-29 colon carcinoma cells; details: [3H]UR-MK300, intact HT-29 cells, 23 °C; read-out: NTS1R pK i ± SEM (converted)
[2] = biological target: T1, NTS1R; assay: cell-based; details: NTS1R pEC50 ± SEM

SMILES	Ki [1]	EC50 [2]
CC[C@H](C)[C@H](NC(=O)[C@H](NC(=O)[C@@H]1CCCN1C(=O)[C@H](CCCNC(=N)N)NC(=O)[C@H](CCCNC(=N)N)NC)C(C)(C)c1ccc(O)cc1)C(=O)N[C@@H](C[Si](C)(C)C)C(=O)O [16b, N ^α-Methyl-Arg-Arg-Pro-β,β-dimethyl-D-Tyr-Ile-β-trimethylsilyl-Ala Tris(hydrotrifluoroacetate)]	12.3 nM	
CC[C@H](C)[C@H](NC(=O)[C@@H](NC(=O)[C@@H]1CCCN1C(=O)[C@H](CCCNC(=N)N)NC(=O)[C@H](CCCNC(=N)NC(=O)NCCCCNC(=O)CCCCCN1\C(=C/C=C/C=C/C2=[N+](CCCCS(=O)(=O)[O-])c3ccccc3C2(C)C)C(C)(C)c2cc(S(=O)(=O)O)ccc21)NC)C(C)(C)c1ccc(O)cc1)C(=O)N[C@@H](C[Si](C)(C)C)C(=O)O [compound 21, N ^α-Methyl-N ^ω-{[4-(N-{6-3H-[2-(5–3H-(1-(4-sulfonatobutyl)-3,3-dimethyl)indol-2-ylidenepent-1,3-dienyl)-3,3-dimethyl-5-sulfo]indol-1-ium-1-yl}hexanoyl)-aminobutyl]aminocarbonyl}Arg-Arg-Pro-β,β-dimethyl-L-Tyr-Ile-β-trimethylsilyl-Ala Tris(hydrotrifluoroacetate)]	0.0912 nM	1.29 nM
CC[C@H](C)[C@H](NC(=O)[C@H](Cc1ccc(O)cc1)NC(=O)[C@@H]1CCCN1C(=O)[C@H](CCCNC(=N)N)NC(=O)[C@H](CCCNC(=N)N)NC)C(=O)N[C@@H](C[Si](C)(C)C)C(=O)O [compound 15, N ^α-Methyl-Arg-Arg-Pro-Tyr-Ile-β-trimethylsilyl-Ala Tris(hydrotrifluoroacetate)]	0.0372 nM	
